Laboratory results published in patent EP4831165A1, “NOVEL SULFONAMIDE DERIVATIVE” (dated 2026).

Tested on: nuclear localization of Smad2/3 induced by TGF-β stimulation in TWNT-4 human hepatic stellate cell line
Experiment: Smad2/3 nuclear localization inhibitory effect (immunofluorescence imaging)
Conditions: read-out: EC50; 50% nuclear localization inhibitory concentration; TWNT-4 cells, 1 ng/mL TGF-β1, 24 hours; 100% = TGF-β-treated group without compound, 0% = 10 µM SB431542
Procedure: TWNT-4 human hepatic stellate cell line was suspended in Dulbecco's modified Eagle's medium (DMEM) containing 10% fetal bovine serum (FBS), seeded onto a 96-well plate at a density of 1×10^3 cells/well, and cultured at 37°C in the presence of 5% CO2 for 24 hours. The compounds of the present invention were dissolved in dimethyl sulfoxide to a concentration of 1 mM, and further diluted with dimethyl sulfoxide and 5% FBS-DMEM so that the final concentrations of the compounds of the present invention were 5000, 1667, 556, 185, 62, 21, 7, and 2 nM, respectively. The medium for the TWNT-4 cells was removed, and 0.1 mL of 1 ng/mL TGF-β1 (Peprotech) was added to each well, followed by culturing for 24 hours. Thereafter, the medium was removed, and the cells were fixed with 4% paraformaldehyde, and washed with phosphate buffered saline (PBS). Blocking was carried out for 30 minutes with PBS containing 2% bovine serum albumin and 0.1% Triton X-100, and the sections were reacted overnight at 4°C with anti-Smad2/3 antibody (Cell Signaling Technology) diluted 1/4000 in the same blocking solution. After the reaction, the plate was washed three times with PBS containing Tween-20 (PBS-T), and then an anti-rabbit immunoglobulin antibody fluorescently labeled with Alexa Fluor 647 (Thermo Fisher Scientific) and the nuclear stain Hoechst 33342 (Dojindo Chemical Industries) were each diluted 1/4000 in blocking solution, and the plate was allowed to react at room temperature for 1 hour. After the reaction was completed, the cells were washed three times with PBS-T and replaced with PBS, and then stained images were obtained using a fluorescence microscope (CellInsight CX5, manufactured by Thermo Fisher Scientific). From the acquired stained images, the nuclear Smad2/3 fluorescence intensity and the cytoplasmic Smad2/3 fluorescence intensity were quantified using analysis software (HCS Studio, manufactured by Thermo Fisher Scientific), and the nuclear localization ratio of Smad2/3 was calculated from the ratio. The 50% nuclear localization inhibitory concentration (EC50 (nM)) was calculated by the least squares method, setting the nuclear localization rate of the TGF-β-treated group without compound treatment as 100% and the TGF-β-treated group with 10 µM of the ALK5 inhibitor SB431542 (Sigma) set as 0%.

Going from `Cc1ccc(S(=O)(=O)N(c2ccc3oc(=O)c(-c4ccccc4Cl)cc3c2)S(=O)(=O)c2ccc(C)cc2)cc1` to `Cc1ccc(S(=O)(=O)N(c2ccc3oc(=O)c(-c4ccccc4C)cc3c2)S(=O)(=O)c2ccc(C)cc2)cc1`, the IC50 rises from 29 nM to 47 nM (1.6-fold). The first is the more potent here.

`Cc1ccc(S(=O)(=O)N(c2ccc3c(c2)C=C(c2ccccc2)S(=O)(=O)O3)S(=O)(=O)c2ccc(C)cc2)cc1` and `CCCCc1ccc(S(=O)(=O)N(c2ccc3c(c2)C=C(c2ccccc2)S(=O)(=O)O3)S(=O)(=O)c2ccc(C)cc2)cc1` are within 1.5-fold of each other in IC50: 37 nM for the first, 46 nM for the second.

Compared with `Cc1ccc(S(=O)(=O)N(c2ccc3oc(=O)c(-c4ccccc4C)cc3c2)S(=O)(=O)N(C)CCc2ccccc2)cc1`, `Cc1ccc(S(=O)(=O)N(c2ccc3oc(=O)c(-c4ccccc4C)cc3c2)S(=O)(=O)N(C)CC2CC2)cc1` is 2.1-fold higher in IC50: 142 nM for the first, 304 nM for the second.

Going from `Cc1ccc(-c2cc3cc(N(S(=O)(=O)c4ccc(C)cc4)S(=O)(=O)c4ccc(C)cc4)ccc3oc2=O)cc1` to `CNc1ccc(-c2cc3cc(N(S(=O)(=O)c4ccc(C)cc4)S(=O)(=O)c4ccc(C)cc4)ccc3oc2=O)cc1`, the IC50 rises from 51 nM to 107 nM (2.1-fold). The first is the more potent here.

`CCCCc1ccc(S(=O)(=O)N(c2ccc3oc(=O)c(-c4ccccc4Cl)cc3c2)S(=O)(=O)c2ccc(C)cc2)cc1` and `CCCCc1ccc(S(=O)(=O)N(c2ccc3oc(=O)c(-c4ccccc4C)cc3c2)S(=O)(=O)c2ccc(C)cc2)cc1` are within 1.5-fold of each other in IC50: 38 nM for the first, 47 nM for the second.

`Cc1ccc(S(=O)(=O)N(c2ccc3oc(=O)c(-c4ccccc4C)cc3c2)S(=O)(=O)c2ccc(CN3CCCCC3)cc2)cc1` and `COC(=O)N(C)c1ccc(S(=O)(=O)N(c2ccc3oc(=O)c(-c4ccccc4C)cc3c2)S(=O)(=O)c2ccc(C)cc2)cc1` are within 1.5-fold of each other in IC50: 80 nM for the first, 72 nM for the second.

First: Cc1ccc(S(=O)(=O)N(c2ccc3oc(=O)c(-c4ccccc4C)cc3c2)S(=O)(=O)c2cccc3c(N(C)C)cccc23)cc1
Second: Cc1ccc(S(=O)(=O)N(c2ccc3oc(=O)c(-c4ccccc4C)cc3c2)S(=O)(=O)c2ccc(N(C)C(=O)OCCC[C@H](N)C(=O)O)cc2)cc1
The IC50 of the first is 1.6-fold lower: 211 nM for the first, 334 nM for the second. The first is the more potent here.

`Cc1ccc(S(=O)(=O)N(c2ccc3oc(=O)c(/C=C/c4ccccc4)cc3c2)S(=O)(=O)c2ccc(C)cc2)cc1` and `Cc1ccc(S(=O)(=O)N(c2ccc3oc(=O)c(Cc4ccccc4O)cc3c2)S(=O)(=O)c2ccc(C)cc2)cc1` are within 1.5-fold of each other in IC50: 566 nM for the first, 596 nM for the second.

`Cc1ccc(S(=O)(=O)N(c2ccc3oc(=O)c(CC4CCCCC4)cc3c2)S(=O)(=O)c2ccc(C)cc2)cc1` and `CCCCOc1ccccc1Cc1cc2cc(N(S(=O)(=O)c3ccc(C)cc3)S(=O)(=O)c3ccc(C)cc3)ccc2oc1=O` are within 1.5-fold of each other in IC50: 148 nM for the first, 143 nM for the second.

First: CCCCc1ccc(S(=O)(=O)N(c2ccc3oc(=O)c(-c4ccc(Cl)cc4)cc3c2)S(=O)(=O)c2ccc(C)cc2)cc1
Second: CCCc1ccc(-c2cc3cc(N(S(=O)(=O)c4ccc(C)cc4)S(=O)(=O)c4ccc(C)cc4)ccc3oc2=O)cc1
The IC50 of the first is 1.5-fold lower: 64 nM for the first, 97 nM for the second. The first is the more potent here.

`Cc1ccc(S(=O)(=O)N(c2ccc3oc(=O)c(-c4ccccc4C)cc3c2)S(=O)(=O)N2CCOCC2)cc1` and `Cc1ccc(S(=O)(=O)N(c2ccc3oc(=O)c(-c4ccccc4C)cc3c2)C(C)C)cc1` are within 1.5-fold of each other in IC50: 757 nM for the first, 564 nM for the second.
